Chains of the proteins cited; added tags and fusions are not shown. Lines headed by an entry give the natural chain unless they say otherwise; changes in a name come on top.
UniProt P34913, whole entry: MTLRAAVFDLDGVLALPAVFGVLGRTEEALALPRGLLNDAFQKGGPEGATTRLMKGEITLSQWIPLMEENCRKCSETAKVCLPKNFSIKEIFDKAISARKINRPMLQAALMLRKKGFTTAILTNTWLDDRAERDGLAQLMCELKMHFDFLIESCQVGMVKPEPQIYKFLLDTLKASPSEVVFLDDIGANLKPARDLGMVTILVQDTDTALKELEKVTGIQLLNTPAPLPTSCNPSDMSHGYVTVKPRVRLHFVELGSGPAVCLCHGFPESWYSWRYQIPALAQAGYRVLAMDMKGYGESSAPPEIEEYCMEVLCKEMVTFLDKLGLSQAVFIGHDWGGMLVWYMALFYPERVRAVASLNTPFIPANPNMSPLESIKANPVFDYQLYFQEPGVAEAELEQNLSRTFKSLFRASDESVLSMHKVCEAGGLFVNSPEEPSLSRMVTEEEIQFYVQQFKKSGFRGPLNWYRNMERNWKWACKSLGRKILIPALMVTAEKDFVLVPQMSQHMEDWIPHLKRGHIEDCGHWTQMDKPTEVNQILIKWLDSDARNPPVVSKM
UniProt Q99720, whole entry: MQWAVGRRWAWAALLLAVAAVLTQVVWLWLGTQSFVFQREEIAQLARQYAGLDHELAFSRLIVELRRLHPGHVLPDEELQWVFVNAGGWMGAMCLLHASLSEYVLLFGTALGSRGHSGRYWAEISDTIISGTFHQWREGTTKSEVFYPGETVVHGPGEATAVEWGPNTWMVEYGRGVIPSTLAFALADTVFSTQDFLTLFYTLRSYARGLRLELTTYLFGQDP

According to patent publication US20260382586A1, “DUAL INHIBITORS OF SIGMA-1 RECEPTOR AND SOLUBLE EPOXIDE HYDROLASE AND THEIR USE IN THE TREATMENT OF PAIN” (published 2026):

Columns and labels:
[1] = target: recombinant human sEH (Homo sapiens, UniProt P34913); assay: Inhibition of sEH (fluorescent assay, CMNPC substrate); details: for IC50: read-out: Inhibition sEH (IC50), human sEH, pH 7.4, 30 °C, [S]=5 μM; for sEH activity in words: summary of Table 1
[2] = target: human S1R (Homo sapiens, UniProt Q99720); assay: Binding to S1R ([3H]-(+)-pentazocine, transfected HEK-293 membranes); details: for Ki: read-out: Binding S1R (Ki), human S1R, [3H]-(+)-pentazocine 5 nM, 37 °C, 120 min, pH 8; for S1R binding in words: summary of Table 1

`OC(CCCN1CCN(c2ncc(F)cn2)CC1)c1ccc(F)cc1` (centres unmarked) was tested, and the IC50 [1] was greater than 1000 nM and the “sEH activity in words” value [1] was “inactive in sEH”.

Work on `O=C(NCc1ccc(Cl)cc1C(F)(F)F)C1CCN(Cc2ccc(F)cc2)CC1` yielded a Ki [2] of less than 50 nM and an IC50 [1] of 10 to 50 nM.

`O=C(NCc1ccc(Cl)cc1Cl)C1CCN(Cc2ccc(Cl)c(Cl)c2)CC1` was tested, and the Ki [2] was 50 to 150 nM and the IC50 [1] was less than 10 nM.

`O=C(NCc1cccc(F)c1Cl)C1CCN(Cc2ccccc2)CC1` showed a Ki [2] of less than 50 nM and an IC50 [1] of 50 to 100 nM.

`O=C(NCc1ccc(Cl)cc1C(F)(F)F)C1CCN(Cc2ccsc2)CC1` was tested, and the Ki [2] was less than 50 nM and the IC50 [1] was 10 to 50 nM.

In the case of `COc1ccc(CN2CCC(C(=O)NCc3ccc(Cl)cc3C(F)(F)F)CC2)cc1`, the Ki [2] is reported as less than 50 nM and the IC50 [1] is reported as less than 10 nM.

In the case of `CS(=O)(=O)c1ccc(CNC(=O)C2CCN(Cc3ccccc3)CC2)c(Cl)c1`, the Ki [2] is reported as 150 to 400 nM and the IC50 [1] is reported as less than 10 nM.

Work on `O=C(NCc1cccc(Br)c1Cl)C1CCN(Cc2ccccc2)CC1` yielded a Ki [2] of less than 50 nM and an IC50 [1] of 50 to 100 nM.

`O=C(NCc1ccc(F)cc1C(F)(F)F)C1CCN(Cc2ccc(F)cc2)CC1` was tested, and the Ki [2] was less than 50 nM and the IC50 [1] was 10 to 50 nM.

In the case of `N#Cc1ccc(CNC(=O)C2CCN(Cc3ccsc3)CC2)c(Cl)c1`, the Ki [2] is reported as less than 50 nM and the IC50 [1] is reported as 10 to 50 nM.

Work on `COc1cccc(CNC(=O)C2CCN(Cc3ccccc3)CC2)c1C(F)(F)F` yielded a Ki [2] of 150 to 400 nM and an IC50 [1] of 10 to 50 nM.

With `CC(=O)N1CCC(NC(=O)NC23CC4CC(CC(C4)C2)C3)CC1` the Ki [2] was greater than 1000 nM and the “S1R binding in words” value [2] was “no significant binding to S1R”.

`O=C(NCc1ccc(Cl)cc1C(F)(F)F)C1CCN(Cc2ccccc2)CC1` showed a Ki [2] of less than 50 nM and an IC50 [1] of less than 10 nM.

With `N#Cc1ccc(CNC(=O)C2CCN(CCc3ccccc3)CC2)c(Cl)c1` the Ki [2] was less than 50 nM and the IC50 [1] was 50 to 100 nM.

`O=C(NCc1ccc(Br)cc1C(F)(F)F)C1CCN(Cc2ccccc2)CC1` showed a Ki [2] of 50 to 150 nM and an IC50 [1] of less than 10 nM.

`Cc1ccc(CN2CCC(C(=O)NCc3ccc(C#N)cc3C(F)(F)F)CC2)cc1` showed a Ki [2] of less than 50 nM and an IC50 [1] of 10 to 50 nM.

In the case of `O=C(NCc1ccc(Cl)cc1Cl)C1CCN(Cc2ccccc2)CC1`, the Ki [2] is reported as less than 50 nM and the IC50 [1] is reported as less than 10 nM.

In the case of `N#Cc1ccc(CNC(=O)C2CCN(Cc3cccc(Cl)c3)CC2)c(C(F)(F)F)c1`, the Ki [2] is reported as 150 to 400 nM and the IC50 [1] is reported as less than 10 nM.

With `O=C(NCc1ccc(Cl)cc1Cl)C1CCN(Cc2cccc(F)c2)CC1` the Ki [2] was 50 to 150 nM and the IC50 [1] was less than 10 nM.

`COc1ccc(CN2CCC(C(=O)NCc3ccc(C#N)cc3C(F)(F)F)CC2)cc1` gave a Ki [2] of 50 to 150 nM and an IC50 [1] of less than 10 nM.

`O=C(NCc1ccc(S(F)(F)(F)(F)F)cc1F)C1CCN(Cc2ccccc2)CC1` gave a Ki [2] of 50 to 150 nM and an IC50 [1] of 50 to 100 nM.

In the case of `O=C(NCc1ccc(Cl)cc1OC(F)(F)F)C1CCN(Cc2ccsc2)CC1`, the Ki [2] is reported as less than 50 nM and the IC50 [1] is reported as less than 10 nM.

Compound `O=C(NCc1ccc(Cl)cc1Cl)C1CCN(Cc2ccc(F)c(F)c2)CC1` has a Ki [2] of less than 50 nM and an IC50 [1] of 10 to 50 nM.

In the case of `COc1ccc2c(c1)[C@]13CCCC[C@@H]1[C@H](C2)N(C)CC3`, the IC50 [1] is reported as greater than 1000 nM and the “sEH activity in words” value [1] is reported as “inactive in sEH”.

Work on `COc1ccc(CN2CCC(C(=O)NCc3ccc(Cl)cc3OC(F)(F)F)CC2)cc1` yielded a Ki [2] of less than 50 nM and an IC50 [1] of less than 10 nM.

Compound `N#Cc1ccc(CNC(=O)C2CCN(Cc3ccc(Cl)cc3)CC2)c(C(F)(F)F)c1` has a Ki [2] of less than 50 nM and an IC50 [1] of 10 to 50 nM.

Work on `O=C(NCc1cc(Cl)cc(Cl)c1Cl)C1CCN(Cc2ccccc2)CC1` yielded a Ki [2] of less than 50 nM and an IC50 [1] of 50 to 100 nM.

`N#Cc1ccc(CNC(=O)C2CCN(Cc3ccc4ccccc4c3)CC2)c(C(F)(F)F)c1` showed a Ki [2] of 50 to 150 nM and an IC50 [1] of less than 10 nM.

Work on `O=C(NCc1ccc(Br)cc1C(F)(F)F)C1CCN(Cc2ccc(F)cc2)CC1` yielded a Ki [2] of less than 50 nM and an IC50 [1] of less than 10 nM.

For `N#Cc1ccc(CNC(=O)C2CCN(Cc3ccsc3)CC2)c(OC(F)(F)F)c1`, the Ki [2] was less than 50 nM and the IC50 [1] was less than 10 nM.

`N#Cc1ccc(CNC(=O)C2CCN(Cc3ccc(I)cc3)CC2)c(C(F)(F)F)c1` showed a Ki [2] of 50 to 150 nM and an IC50 [1] of less than 10 nM.

For `N#Cc1ccc(CNC(=O)C2CCN(Cc3ccccc3)CC2)c(Cl)c1`, the Ki [2] was 50 to 150 nM and the IC50 [1] was less than 10 nM.

Compound `O=C(NCc1ccccc1OC(F)(F)F)C1CCN(c2ncccn2)CC1` has a Ki [2] greater than 1000 nM and an IC50 [1] of less than 10 nM.

Work on `O=C(NCc1ccc(Br)cc1OC(F)(F)F)C1CCN(Cc2ccc(F)cc2)CC1` yielded a Ki [2] of less than 50 nM and an IC50 [1] of less than 10 nM.

Compound `O=C(NCc1ccc(F)cc1C(F)(F)F)C1CCN(Cc2ccccc2)CC1` has a Ki [2] of less than 50 nM and an IC50 [1] of less than 10 nM.

`COc1cc(OC(F)(F)F)ccc1CNC(=O)C1CCN(Cc2ccccc2)CC1` showed a Ki [2] of less than 50 nM and an IC50 [1] of 50 to 100 nM.

`O=C(NCc1ccc(Cl)cc1OC(F)(F)F)C1CCN(Cc2ccc(F)cc2)CC1` was tested, and the Ki [2] was less than 50 nM and the IC50 [1] was less than 10 nM.

`N#Cc1ccc(CNC(=O)C2CCN(Cc3ccc(F)cc3)CC2)c(Cl)c1` gave a Ki [2] of less than 50 nM and an IC50 [1] of 10 to 50 nM.

`N#Cc1ccc(CNC(=O)C2CCN(Cc3cccs3)CC2)c(C(F)(F)F)c1` gave a Ki [2] of 50 to 150 nM and an IC50 [1] of less than 10 nM.

For `CCCN(CCC)CCc1ccc(OC)c(OCCc2ccccc2)c1`, the IC50 [1] was greater than 1000 nM and the “sEH activity in words” value [1] was “inactive in sEH”.

Compound `O=C(NCc1cc(F)c(Cl)cc1Cl)C1CCN(Cc2ccccc2)CC1` has a Ki [2] of less than 50 nM and an IC50 [1] of 10 to 50 nM.

Work on `O=C(NCc1ccc(Cl)cc1Cl)C1CCN(Cc2ccc(F)cc2)CC1` yielded a Ki [2] of less than 50 nM and an IC50 [1] of 10 to 50 nM.

Compound `N#Cc1ccc(CNC(=O)C2CCN(CCc3ccccc3)CC2)c(OC(F)(F)F)c1` has a Ki [2] of 50 to 150 nM and an IC50 [1] of 10 to 50 nM.

`O=C(NCc1ccc(Br)cc1Cl)C1CCN(Cc2ccccc2)CC1` gave a Ki [2] of 50 to 150 nM and an IC50 [1] of 10 to 50 nM.

For `O=C(NCc1ccc(Cl)cc1Cl)C1CCN(Cc2ccc(I)cc2)CC1`, the Ki [2] was less than 50 nM and the IC50 [1] was less than 10 nM.

`COc1ccc(CNC(=O)C2CCN(Cc3ccccc3)CC2)c(OC(F)(F)F)c1` was tested, and the Ki [2] was 150 to 400 nM and the IC50 [1] was less than 10 nM.

`N#Cc1ccc(CNC(=O)C2CCN(Cc3ccc(F)cc3)CC2)c(C(F)(F)F)c1` was tested, and the Ki [2] was 50 to 150 nM and the IC50 [1] was less than 10 nM.

`O=C(NCc1ccc(Cl)cc1Cl)C1CCN(CCc2ccccc2)CC1` showed a Ki [2] of less than 50 nM and an IC50 [1] of 10 to 50 nM.

With `O=C(NCc1cccc(Cl)c1C(F)(F)F)C1CCN(Cc2ccccc2)CC1` the Ki [2] was less than 50 nM and the IC50 [1] was less than 10 nM.

Compound `COc1ccc(CNC(=O)C2CCN(Cc3ccccc3)CC2)c(Cl)c1` has a Ki [2] of 150 to 400 nM and an IC50 [1] of 10 to 50 nM.

`N#Cc1ccc(CNC(=O)C2CCN(Cc3ccc(C(F)(F)F)cc3)CC2)c(C(F)(F)F)c1` was tested, and the Ki [2] was 50 to 150 nM and the IC50 [1] was less than 10 nM.

Work on `N#Cc1ccc(CNC(=O)C2CCN(CCc3ccccc3)CC2)c(C(F)(F)F)c1` yielded a Ki [2] of 50 to 150 nM and an IC50 [1] of less than 10 nM.

For `COc1ccc(CN2CCC(C(=O)NCc3ccc(F)cc3C(F)(F)F)CC2)cc1`, the Ki [2] was less than 50 nM and the IC50 [1] was 10 to 50 nM.

`O=C(NCc1ccc(Br)cc1C(F)(F)F)C1CCN(Cc2ccc(I)cc2)CC1` gave a Ki [2] of less than 50 nM and an IC50 [1] of less than 10 nM.

Work on `O=C(NCc1ccc(Br)cc1OC(F)(F)F)C1CCN(Cc2ccsc2)CC1` yielded a Ki [2] of less than 50 nM and an IC50 [1] of less than 10 nM.

`O=C(NCc1cccc(C(F)(F)F)c1Cl)C1CCN(Cc2ccccc2)CC1` was tested, and the Ki [2] was less than 50 nM and the IC50 [1] was 10 to 50 nM.

`N#Cc1ccc(CNC(=O)C2CCN(Cc3ccccc3)CC2)c(OC(F)(F)F)c1` was tested, and the Ki [2] was 50 to 150 nM and the IC50 [1] was less than 10 nM.

Compound `Cc1ccc(CN2CCC(C(=O)NCc3ccc(Cl)cc3Cl)CC2)cc1` has a Ki [2] of less than 50 nM and an IC50 [1] of 10 to 50 nM.

`Cc1cc(OCCN2CCOCC2)nn1-c1ccc2ccccc2c1` was tested, and the IC50 [1] was greater than 1000 nM and the “sEH activity in words” value [1] was “inactive in sEH”.

`CC[C@H](C)C(=O)N1CCC(NC(=O)Nc2ccc(OC(F)(F)F)c(F)c2)CC1` was tested, and the Ki [2] was greater than 1000 nM and the “S1R binding in words” value [2] was “no significant binding to S1R”.

In the case of `O=C(OCCN1CCOCC1)C1(c2ccccc2)CCCCC1`, the IC50 [1] is reported as greater than 1000 nM and the “sEH activity in words” value [1] is reported as “inactive in sEH”.
